Results from PubChem BioAssay (NCATS).
Where “and” joins values, the source holds several entries; their conditions need not be identical. Identical values can stand only once. This is a selection; strong and weak results do not stand in their true shares. Records with an inconclusive call do not appear. For part of these data: Results with a measured potency or affinity are listed apart. Calls of active or inactive are those of the source.

How the values were obtained:
[1] = qHTS Assay for Identifying Gametocytocidal Compounds (AID 743244; active = well fitted curve in the direction sought with a large enough effect; an effect the other way counts as inactive or inconclusive;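 note: % is set by controls: 0 for no effect and ±100 for the full control effect; actives lower the fluorescent signal which means gametocytes are killed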); conditions: P. falciparum 3D7 stage III-V gametocytes, alamarBlue, 72 h; stronger effect = lower value
[2] = Ebola virus entry assay, green fluorescence channel
[3] = Ebola virus entry assay, blue channel fluorescence
[4] = Ebola virus entry assay, green channel fluorescence
[5] = Ebola virus entry assay, reporter ratio channel; Channel type: primary
[6] = Ebola virus entry assay, blue channel (ratio component)
[7] = qHTS assay for small molecule agonists of the antioxidant response element (ARE) signaling pathway measured by Nrf2-dependant transcriptional activity - cell viability counter screen (AID 720653; active = well fitted curve in the direction sought with a large enough effect in the repeat runs; an effect the other way counts as inactive or inconclusive; note: % is set by controls: 0 for no effect and ±100 for the full control effect); conditions: ARE-bla HepG2 viability, CellTiter-Glo ATP luminescence, 16 h; stronger effect = lower value
Outline: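 ARE-bla HepG2 cells treated with compounds for 16 h at 37C; this counter screen measures viability as intracellular ATP by CellTiter-Glo luminescence after 30 min at room temperature.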

[8] = qHTS assay for cell viability of HEK293 cells (AID 743288; active = well fitted curve in the direction sought with a large enough effect; an effect the other way counts as inactive or inconclusive; note: % is set by controls: 0 for no effect and ±100 for the full control effect; nearly all actives have a fitted effect of over 50% in size); conditions: ATP luminescence (CellTiter-Glo), 18 h, stronger effect = lower value
Outline: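 After 18 h compound exposure at 37 C, parental HEK293 cells (2,000/well) are lysed with CellTiter-Glo and luminescence is read following 30 min at room temperature.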

[9] = qHTS assay for cell viability of the p53RE-bla HCT-116 cell line (AID 743292; active = well fitted curve in the direction sought with a large enough effect; an effect the other way counts as inactive or inconclusive; note: % is set by controls: 0 for no effect and ±100 for the full control effect; nearly all actives have a fitted effect of over 55% in size); conditions: p53RE-bla HCT-116 viability, ATP luminescence, 16 h; at 95 µM (top of the series)
Outline: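 In this qHTS counter-screen, metabolically competent p53RE-bla HCT-116 cells were counted via their ATP content. Compounds were applied for 16 h at 37 C and luciferase-coupled luminescence was measured.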

[10] = qHTS profiling of the MIPE4 collection as inhibitors of Plasmodium falciparum (3D7) proliferation (AID 743344);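 note: scaled between DMSO vehicle wells and 0.29 µM artemisinin as full inhibition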; conditions: P. falciparum 3D7 in erythrocytes, SYBR Green DNA fluorescence, 72 h; at 28.5 µM (top of the series)
[11] = qHTS profiling of the MIPE4 collection as inhibitors of Plasmodium falciparum (DD2) proliferation (AID 743345); conditions: P. falciparum Dd2 in erythrocytes, SYBR Green DNA, 72 h; at 28.5 µM (top of the series)
[12] = qHTS profiling of the MIPE4 collection as inhibitors of Plasmodium falciparum (DD2) proliferation (Rep 2) (AID 743346); conditions: P. falciparum Dd2 in erythrocytes, SYBR Green DNA, 72 h; at 28.5 µM (top of the series)
[13] = qHTS profiling of the MIPE4 collection as inhibitors of Plasmodium falciparum (HB3) proliferation (AID 743347);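 note: plate controls were DMSO vehicle wells for no effect and artemisinin wells for full effect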; conditions: P. falciparum HB3 in erythrocytes, SYBR Green DNA, 72 h; at 28.5 µM (top of the series)
[14] = Ebola virus entry assay, blue channel fluorescence; remark: listed apart in the source
[15] = Ebola virus entry assay, green fluorescence channel; remark: listed apart in the source
[16] = Ebola virus entry assay, ratio channel readout
[17] = Ebola virus entry assay, ratio channel
[18] = Ebola virus entry assay, blue channel fluorescence; remark: listed apart in the source
[19] = Ebola virus entry cell assay, ratio channel
[20] = High-throughput drug toxicity screening in the BPDCN cell line Gen2.2 (AID 1224824); conditions: Gen2.2 BPDCN cells; at 45.8 µM (top of the series);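 note: cells exposed to compounds for 48 h before reading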
Outline: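 Gen2.2 cells (500/well) in phenol red-free RPMI with 10% FBS were exposed to compounds for 48 h at 37 °C, 5% CO2. Viability was read by CellTiter-Glo luminescence and normalized to DMSO (100%) and 9.2 uM bortezomib (0%).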
Throughout, for efficacy: 0% is about no effect.

Compound: CCC(=O)N(c1ccccc1)C1(COC)CCN(CCn2nnn(CC)c2=O)CC1
- max response [1]: inactive: 5.87%
- efficacy [2]: inactive: 26.7%
- outcome [3]: inactive
- outcome [4]: inactive
- outcome [5]: inactive
- outcome [6]: inactive

Compound: CCC(=O)N(c1ccccc1)C1(COC)CCN(CCc2cccs2)CC1
- max response [1]: inactive: -15.4%
- efficacy [2]: inactive: 124%

Compound: CCC(=O)N(c1ccccc1)C1CCN(CCc2ccccc2)CC1
- max response [1]: inactive: 5.19%

Compound: O=[N+]([O-])C(Cl)(Cl)Cl
- max response [7]: inactive: 5.91% and inactive: -6.91%
- max response [8]: inactive: 0.78% and inactive: -10.1%
- activity change, negative = cytotoxicity [9]: inactive: 1.61% and inactive: 0.3%

Compound: CN(CCCl)CCCl
- max response [7]: inactive: -22.2%
- max response [1]: inactive: 13.4%
- parasite growth, % of DMSO control [10]: 86.2%
- parasite growth remaining, % of DMSO control (lower = more inhibition) [11]: 68.4%
- parasite growth, % of control (lower = inhibition) [12]: 118%
- growth, % of control [13]: 105%
- efficacy [2]: inactive: -30.8%
- outcome [14]: inactive
- outcome [15]: inactive
- outcome [16]: inactive
- outcome [3]: inactive
- outcome [17]: inactive
- outcome [4]: inactive
- outcome [18]: inactive
- outcome [5]: inactive
- outcome [6]: inactive
- outcome [19]: inactive
- cell viability, % of control (lower = more cytotoxic) [20]: 30.4%
